# Results: PubChem BioAssay AID651635 (National Center for Advancing Translational Sciences (NCATS), 2012)
# This is a selection; strong and weak results do not stand in their true shares. Records with an inconclusive call do not appear. Active and inactive are the calls of the source. Calls come from the whole dose curve; as a rule, active = well fitted cell-killing curve with a large enough effect; inconclusive = small, poorly fitted or top-dose-only effect, or effect the other way; inactive = no such curve, though single readings can be large or run the other way.
# Test: Viability Counterscreen for Primary qHTS for Inhibitors of ATXN expression; note: nearly all actives have a fitted effect of over 40% in size
# Conditions: S2 cells (HEK-293 line with an ATXN2-luciferase reporter) viability, CellTiter-Fluor protease fluorescence, 24 h; at 56.7 µM (top of the series)
row,Structure (SMILES),"activity change, negative = cytotoxicity"
1,Cc1ccc(C(=O)NCC2(N(C)C)CCCCC2)o1,inactive: -11%
2,CCCOc1ccc(C(=O)NCC2(N(C)C)CCCCC2)cc1OC,inactive: -24.5%
3,O=C(NCC1(N2CCOCC2)CCCCC1)c1ccccc1Br,inactive: -18.4%
4,O=C(NCC1(N2CCCCC2)CCCCC1)c1cncc(Br)c1,inactive: -29.5%
5,O=C(OC1CN2CCC1CC2)c1ccc([N+](=O)[O-])cc1 (stereo not drawn),inactive: -33.2%
6,COc1cc(OC)c(C(=O)NCC2(N(C)C)CCCCC2)cc1OC,inactive: 2.58%
7,CCC(c1nnnn1C(C)(C)C)N1CCC(n2c(=O)[nH]c3ccccc32)CC1 (stereo not drawn),inactive: -13.8%
8,COc1ccc(CN(CCCl)CCCl)cc1Cl,inactive: -24.8%
9,CN(C)c1cccc(C(=O)NCC2(N3CCCCC3)CCCCC2)c1,inactive: -5.17%
10,CC(C)c1ccc(NC2CCN(C(=O)OC(C)(C)C)CC2)cc1,inactive: -27.2%
11,CN1CCN(CCOC(=O)C(O)(c2ccccc2)c2ccccc2)CC1,inactive: -21.7%
12,CC(C)c1ccc(C(=O)NCC2(N3CCOCC3)CCCCC2)cc1,inactive: -5.91%
13,COc1ccc(NC2CCN(C(=O)OC(C)(C)C)CC2)cc1,inactive: -38.6%
14,COc1cc(C(=O)NCC2(N3CCCCC3)CCCCC2)ccc1OC(F)F,inactive: -30.3%
15,O=C(NCC1(N2CCOCC2)CCCCC1)c1cc(=O)[nH]c2ccccc12,inactive: 4.44%
16,O=C(NCC1(N2CCCCC2)CCCCC1)c1cccc(C(F)(F)F)c1,inactive: -19.3%
17,O=C(NCC1(N2CCCCC2)CCCCC1)c1cccc([N+](=O)[O-])c1,inactive: 0.362%
18,CCOc1ccc(C(=O)NCC2(N3CCOCC3)CCCCC2)cc1,inactive: -16.4%
19,CSc1ccc(C(=O)NCC2(N3CCOCC3)CCCCC2)cc1,inactive: -13%
20,CCN1CCC(Nc2ccc(Cl)cc2)CC1,inactive: -16.9%
21,N#CC1(Nc2ccccc2)CCN(CCc2ccccc2)CC1,inactive: -19.7%
22,O=C(NCC1(N2CCCCC2)CCCCC1)c1ccc(OC(F)F)cc1,inactive: -36.3%
23,COc1cc(C(=O)NCC2(N(C)C)CCCCC2)ccc1OC(F)F,inactive: -19.7%
24,CCOC(=O)N1CCC(Nc2cccc(C)c2)CC1,inactive: -24.1%
25,O=P1(N(CCCl)CCCl)SCCCS1,inactive: 1.56%
26,CCCCOc1ccc(C(=O)NCC2(N3CCOCC3)CCCCC2)cc1,inactive: -20.3%
27,COc1ccc(NC2CCN(CCc3ccccc3)CC2)c(OC)c1,inactive: -24.1%
28,CCOC(=O)N1CCC(Nc2ccc(F)cc2)CC1,inactive: -19.1%
